Experimental data as given in patent US20240261378A1 (UNM RAINFOREST INNOVATIONS, published 2024).

Target: T1, endogenous TRIM16 (human, UniProt O95361)
T1 construct: Endogenous protein, immunoprecipitated from cell lysates
Experiment: co-IP and reverse co-IP of endogenous proteins, HeLa cells

B1: endogenous ATG16L1 (other, UniProt Q676U5 1-607, looked up)
chain: MSSGLRAADFPRWKRHISEQLRRRDRLQRQAFEEIILQYNKLLEKSDLHSVLAQKLQAEKHDVPNRHEISPGHDGTWNDNQLQEMAQLRIKHQEELTELHKKRGELAQLVIDLNNQMQRKDREMQMNEAKIAECLQTISDLETECLDLRTKLCDLERANQTLKDEYDALQITFTALEGKLRKTTEENQELVTRWMAEKAQEANRLNAENEKDSRRRQARLQKELAEAAKEPLPVEQDDDIEVIVDETSDHTEETSPVRAISRAATKRLSQPAGGLLDSITNIFGRRSVSSFPVPQDNVDTHPGSGKEVRVPATALCVFDAHDGEVNAVQFSPGSRLLATGGMDRRVKLWEVFGEKCEFKGSLSGSNAGITSIEFDSAGSYLLAASNDFASRIWTVDDYRLRHTLTGHSGKVLSAKFLLDNARIVSGSHDRTLKLWDLRSKVCIKTVFAGSSCNDIVCTEQCVMSGHFDKKIRFWDIRSESIVREMELLGKITALDLNPERTELLSCSRDDLLKVIDLRTNAIKQTFSAPGFKCGSDWTRVVFSPDGSYVAAGSAEGSLYIWSVLTGKVEKVLSKQHSSSINAVAWSPSGSHVVSVDKGCKAVLWAQY
binding result: binds
